{"source": "patent US20230357349A1", "about": "“GLUCAGON DELIVERY VIA ENZYMATIC ACTUATION” (University of Notre Dame du Lac, priority 2022, published 2023)", "conditions": "buffer, pH 5"}
{"substance": "dasiglucagon", "values": [{"measurement": "duration payload remains stable (no degradation or amyloid formation)", "value": "at least 7 days"}]}
